Test results from BindingDB's records for doi:10.1021/jm801343r (University of Washington At Seattle, 2009).

Molecular target: T1, Dihydroorotate dehydrogenase (quinone), mitochondrial [100-517] (Plasmodium berghei (strain Anka), UniProt A0A509AEH5)
T1 construct: 100-517
T1 sequence (A0A509AEH5 whole entry): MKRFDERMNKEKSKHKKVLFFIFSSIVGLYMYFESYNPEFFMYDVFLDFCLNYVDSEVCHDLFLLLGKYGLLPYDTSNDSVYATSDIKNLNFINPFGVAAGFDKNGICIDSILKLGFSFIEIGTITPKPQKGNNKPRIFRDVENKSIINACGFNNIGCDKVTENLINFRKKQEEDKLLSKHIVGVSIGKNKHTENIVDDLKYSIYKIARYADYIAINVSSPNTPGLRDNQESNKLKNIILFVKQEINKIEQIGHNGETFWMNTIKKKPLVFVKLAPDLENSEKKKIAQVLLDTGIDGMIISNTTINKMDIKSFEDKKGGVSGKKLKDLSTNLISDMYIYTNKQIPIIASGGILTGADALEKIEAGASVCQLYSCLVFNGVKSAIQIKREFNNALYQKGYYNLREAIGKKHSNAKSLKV
Assay: DHODH Inhibition Assay
Protocol: The assays were carried out by using a colorimetric DCIP method, which uses the colorimetric reagent 2, 6-dichlorophenolindophenol as the final electron acceptor. DCIP reduction is stoichiometrically equivalent to oxidation of dihydroorotate. Changes in absorbance were quantified on a plate reader and data were analyzed to measure the reduction of DCIP as a decrease in absorbance at 600 nm.

`Cc1cc(Nc2ccc3ccccc3c2)n2ncnc2n1` [JMC521864 Compund DSM1] showed an IC50 of 0.23 µM.
